# PubChem BioAssay AID651768 (National Center for Advancing Translational Sciences (NCATS), 2012)
# Amino acid sequences for entries named in this document (tags omitted).
# UniProt Q14191, whole entry: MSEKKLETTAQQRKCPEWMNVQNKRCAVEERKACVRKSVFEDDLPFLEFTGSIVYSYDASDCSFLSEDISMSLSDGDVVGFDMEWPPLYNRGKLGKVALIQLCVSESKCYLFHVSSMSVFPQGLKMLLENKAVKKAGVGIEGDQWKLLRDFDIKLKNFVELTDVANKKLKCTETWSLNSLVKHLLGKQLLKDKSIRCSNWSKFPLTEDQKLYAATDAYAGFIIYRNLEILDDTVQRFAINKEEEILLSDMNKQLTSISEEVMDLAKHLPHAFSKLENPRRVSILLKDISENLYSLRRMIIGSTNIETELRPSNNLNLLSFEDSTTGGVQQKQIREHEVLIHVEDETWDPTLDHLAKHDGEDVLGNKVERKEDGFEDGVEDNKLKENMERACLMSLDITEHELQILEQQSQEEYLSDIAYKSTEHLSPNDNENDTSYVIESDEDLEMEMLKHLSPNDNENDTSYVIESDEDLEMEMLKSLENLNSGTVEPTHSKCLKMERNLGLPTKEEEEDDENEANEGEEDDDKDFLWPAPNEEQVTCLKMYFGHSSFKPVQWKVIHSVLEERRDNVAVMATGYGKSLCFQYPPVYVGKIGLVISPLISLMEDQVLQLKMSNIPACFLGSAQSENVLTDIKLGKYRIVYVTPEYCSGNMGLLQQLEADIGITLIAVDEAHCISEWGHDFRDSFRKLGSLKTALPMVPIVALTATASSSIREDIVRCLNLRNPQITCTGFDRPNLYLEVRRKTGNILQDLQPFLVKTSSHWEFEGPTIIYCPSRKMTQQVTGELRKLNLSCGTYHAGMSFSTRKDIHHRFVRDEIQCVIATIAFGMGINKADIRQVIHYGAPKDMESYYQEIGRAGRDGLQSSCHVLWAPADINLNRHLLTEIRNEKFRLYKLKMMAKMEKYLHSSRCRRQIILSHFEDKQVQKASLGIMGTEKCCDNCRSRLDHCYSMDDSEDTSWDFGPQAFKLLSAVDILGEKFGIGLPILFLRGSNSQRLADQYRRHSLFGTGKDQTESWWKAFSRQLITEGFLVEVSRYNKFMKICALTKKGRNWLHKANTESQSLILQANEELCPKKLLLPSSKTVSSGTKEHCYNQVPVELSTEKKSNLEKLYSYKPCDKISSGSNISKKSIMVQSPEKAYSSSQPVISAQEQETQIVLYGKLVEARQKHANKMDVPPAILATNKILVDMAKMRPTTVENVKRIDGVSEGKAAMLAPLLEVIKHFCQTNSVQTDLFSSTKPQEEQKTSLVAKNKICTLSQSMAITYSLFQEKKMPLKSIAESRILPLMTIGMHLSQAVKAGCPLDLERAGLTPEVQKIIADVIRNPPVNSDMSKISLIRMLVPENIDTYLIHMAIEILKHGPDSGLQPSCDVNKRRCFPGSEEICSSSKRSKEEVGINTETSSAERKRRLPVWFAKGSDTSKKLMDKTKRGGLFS
# The list shows a part of the results, in another mix than the full data. Calls of active or inactive are those of the source. Calls come from the whole dose curve; as a rule, active = well fitted inhibition curve with a large enough effect; inconclusive = small, poorly fitted or top-dose-only effect; inactive = no such curve, though single readings can be large or run the other way.
# Biological target: Bifunctional 3'-5' exonuclease/ATP-dependent helicase WRN (Homo sapiens) (UniProt Q14191)
# Assay: qHTS for Inhibitors of WRN Helicase; note: nearly all actives have a fitted effect of over 55% in size
# Conditions: WRN helicase unwinding, fluorescent forked duplex, kinetic; at 114 µM (top of the series) unless noted
# Source text: Inhibition of DNA repair is proposed as a strategy for combating cancer. Synthetic lethality is an approach that exploits preexisting DNA repair deficiencies in certain tumors to develop inhibitors of DNA repair pathways that compensate for the tumor-associated DNA repair deficiency. Because helicases play critical roles in the DNA damage response and in DNA repair, particularly in actively dividing and replicating cells, characterization of synthetic lethal relationships of DNA helicases may be of value in developing improved anticancer treatment strategies; moreover, small molecules that specifically target a given DNA helicase may be useful for understanding its role in cellular nucleic acid metabolism. The goal of this project is to identify small molecule, non-covalent chemical inhibitors of the Werner syndrome (WS) helicase (WRN), which plays an important role in cell proliferation, the replication stress response, and DNA repair. […] The WRN gene product that is defective in the chromosomal instability disorder has DNA helicase and exonuclease activities and interacts with a number of nuclear proteins to maintain genomic stability. We will employ an optimized high-throughput screening assay that utilizes a fluorescence intensity modulation scheme with a fluorophore and quencher positioned near one another within a duplex deoxyoligonucleotide that contains a single forked structure. After a high-throughput screen of the ~350,000-member Molecular Libraries Small Molecule Repository (MLSMR) collection, followed by data analysis and hit selection, a panel of confirmatory, as well as secondary and ternary, assays will be employed to identify high-confidence WRN inhibitors. Structure-activity relationships will be investigated for the top candidate inhibitor series through medchem expansion. These are the results of the primary screening campaign against the MLSMR. NIH Chemical Genomics Center [NCGC] NIH Molecular Libraries Probe Centers Network [MLPCN] MLPCN Grant: MH096530 Assay Submitter (PI): Robert Brosh, National Institute of Aging
# Three muL of reagents (buffer in columns 3 and 4 as negative controls; WRN at 20 nM final concentration in columns 1 and 2 as positive controls; columns 5-48 as test reactions) will be dispensed into a 1536-well Greiner black plate via solenoid-valve based nanoliter dispensers. Compounds (23 nL each in columns 5-48) and control (23 nL each in column 2 as dose-response) will be transferred via a Kalypsys pintool equipped with a 1536-pin array. Plates will be incubated for 15 min at room temperature, and then 1 µL of substrate (100 nM forked duplex oligonucleotide and 2 mM ATP final concentrations) will be added to start reaction, and plate will be transferred into a ViewLux high-throughput CCD imager where reaction progress is measured in kinetic mode using standard red-fluorescence optics (excitation filter 525 nm, emission filter 598 nm).
# % is set by controls: 0 for no effect and ±100 for the full control effect.
row,Compound,"activity change, negative = inhibition"
1,O=C(OCCN1CCN(CCOCc2ccccc2)CC1)C(O)(c1ccccc1)c1ccccc1,inactive: -11.2%
2,CP(=O)(Nc1ccccc1F)Oc1ccccc1 (stereo unspecified),inactive: -16%
3,CC(C)c1ccc(OP(C)(=O)Nc2ccc(SC(F)(F)F)cc2)cc1 (stereo unspecified),inactive: -9.59%
4,Cc1c([N+](=O)[O-])cc([N+](=O)[O-])c(Br)c1[N+](=O)[O-],inactive: -35.4%
5,CCN(CC)CCCOC(=O)C(O)(c1ccccc1)C1CCCCC1 (stereo unspecified),inactive: 1.27%
6,CP(=O)(Nc1ccccc1)Oc1ccc(F)cc1 (stereo unspecified),inactive: -9.29%
7,CCCCCOc1ccc(NP(C)(=O)Oc2ccc(Cl)cc2Cl)cc1 (stereo unspecified),inactive: -17.5%
8,CCOC(=O)c1ccc(NP(C)(=O)Oc2ccc(F)cc2)cc1 (stereo unspecified),inactive: -7.48% [at 57.1 µM]
9,COc1ccc(OP(C)(=O)Nc2ccc(SC(F)(F)F)cc2)cc1 (stereo unspecified),inactive: -9.74%
10,O=[N+]([O-])c1ccc(OP2(=O)COCCO2)cc1 (stereo unspecified),inactive: 13.7%
11,Cc1cc(-c2cccc3ccccc23)c(C)cn1.O=[N+]([O-])c1cc([N+](=O)[O-])c(O)c([N+](=O)[O-])c1,inactive: -7.46%
12,Cc1c(C(c2ccc3c(c2)OCO3)c2c(C)n(C)n(-c3ccccc3)c2=O)c(=O)n(-c2ccccc2)n1C.O=[N+]([O-])c1cc([N+](=O)[O-])c(O)c([N+](=O)[O-])c1,inactive: -7.9%
13,COc1ccc(OP(C)(=O)Nc2cccc(Br)c2)cc1 (stereo unspecified),inactive: 5.05%
14,CN(C)CCOC(=O)C(O)(c1ccccc1)C1CCCCC1 (stereo unspecified),inactive: -3.49%
15,CP(=O)(Nc1ccc2c(c1)OCCO2)Oc1ccccc1 (stereo unspecified),inactive: -3.92%
16,Cc1ccccc1NP(C)(=O)Nc1ccccc1C,inactive: -1.43%
17,O=[N+]([O-])c1cc([N+](=O)[O-])c(C(F)(F)F)c([N+](=O)[O-])c1O,inactive: 1.51%
18,CP(=O)(Nc1ccc(SC(F)(F)F)cc1)Oc1ccc(F)cc1 (stereo unspecified),inactive: 1.79%
19,CCOP(C)(=S)SCC(=O)NC(C)(CC)C(=O)O (stereo unspecified),inactive: -10.8%
20,COc1ccccc1OP(C)(=O)Nc1ccccc1Br (stereo unspecified),inactive: -1.42%
21,CC(C)(C)c1ccc(OP(C)(=O)O)cc1,inactive: 6.23%

row,Compound,"activity change, negative = inhibition"
1,CP(=O)(Nc1ccc(Cl)cc1)Oc1ccc(F)cc1 (stereo unspecified),inactive: -16.1%
2,CN(C)C(=O)c1c([N+](=O)[O-])cc([N+](=O)[O-])cc1[N+](=O)[O-],inactive: 1.83%
3,CCN(CC)CC(O)COC(=O)C(O)(c1ccccc1)C1CCCCC1 (stereo unspecified),inactive: -1.87%
4,COc1ccc(OP(C)(=O)Nc2ccc(Br)cc2)cc1 (stereo unspecified),inactive: 1.18%
5,COc1ccccc1OP(C)(=O)Nc1c(C)n(C)n(-c2ccccc2)c1=O (stereo unspecified),inactive: 8.55%
6,CP(=O)(Oc1ccccc1)N1CCOC1=O (stereo unspecified),inactive: 9.02%
7,CCc1ccc(OP(C)(=O)Nc2cccnc2)cc1 (stereo unspecified),inactive: 3.27%
8,Nc1ccc2c(ccc3cccnc32)n1.O=[N+]([O-])c1cc([N+](=O)[O-])c(O)c([N+](=O)[O-])c1,inactive: 3.85%
9,CCOC(=O)c1ccc(NP(C)(=O)Oc2ccc(Cl)cc2)cc1 (stereo unspecified),inactive: 8.64%
10,CP(=O)(OC12CC3CC(CC(C3)C1)C2)OC12CC3CC(CC(C3)C1)C2,inactive: 9.58%
11,CCCCCCCCCCCCCCCC1C[N+](C)(C)CCOP(C)(=O)O1 (stereo unspecified),inactive: -2.28%
12,CP(=O)(Nc1ccc(Cl)cc1Cl)Oc1ccccc1 (stereo unspecified),inactive: -6.37%
13,CP(=O)(OCCOc1ccccc1)OCCOc1ccccc1,inactive: 0.928%
14,Cc1cc(C)cc(OP(C)(=O)Nc2cccc(C(F)(F)F)c2)c1 (stereo unspecified),inactive: -6.59%
15,COc1ccccc1OP(C)(=O)Nc1ccc(C)c(C)c1 (stereo unspecified),inactive: -0.54%
16,COc1ccc(OP(C)(=O)Nc2ccccc2Br)cc1 (stereo unspecified),inactive: 4.73%
17,Cc1c(NP(C)(=O)Oc2ccc(C(C)C)cc2)c(=O)n(-c2ccccc2)n1C (stereo unspecified),inactive: 5.36%
18,O=[N+]([O-])c1cc([N+](=O)[O-])c(Nc2ccccn2)c([N+](=O)[O-])c1,inactive: -25.9%
19,CP(=O)(Nc1ccccn1)Oc1ccccc1 (stereo unspecified),inactive: 1.5%
20,COc1ccccc1OP(C)(=O)Nc1ccc(C)cc1C (stereo unspecified),inactive: 6.11%
21,CCc1ccc(OP(C)(=O)O)cc1,inactive: 9.06%

row,Compound,"activity change, negative = inhibition"
1,COc1ccccc1OP(C)(=O)Nc1ccc(Br)cc1 (stereo unspecified),inactive: 3.22%
2,COc1ccc(OP(C)(=O)Nc2ccccn2)cc1 (stereo unspecified),inactive: -17% [at 57.1 µM]
3,CN(C)CCOC(=O)C(O)(c1ccccc1)C1CCCC1 (stereo unspecified),inactive: -1.44% [at 57.1 µM]
4,COc1ccccc1-c1ccccn1.O=[N+]([O-])c1cc([N+](=O)[O-])c(O)c([N+](=O)[O-])c1,inactive: 0.12%
5,CCN(CC)CCCOC(=O)C(O)(c1ccccc1)c1ccccc1,inactive: -0.0344%
6,COc1ccccc1OP(C)(=O)Nc1ccc(C)cc1 (stereo unspecified),inactive: -6.35%
7,Cc1ccc(NP(C)(=O)Oc2ccccc2)c(C)c1 (stereo unspecified),inactive: -4.4%
8,CCOC(=O)c1ccc(NP(C)(=O)Oc2ccccc2)cc1 (stereo unspecified),inactive: -1.06%
9,Cc1cc(C)cc(OP(C)(N)=O)c1 (stereo unspecified),inactive: -4.69%
10,COc1ccccc1OP(C)(=O)Nc1cc(Cl)ccc1C (stereo unspecified),inactive: 1.05%
11,COc1ccc(OP(C)(=O)Nc2cccc(F)c2)cc1 (stereo unspecified),inactive: 8.1%
12,O=[N+]([O-])c1cc([N+](=O)[O-])c(Nc2cccnc2)c([N+](=O)[O-])c1,inactive: -1.07%
13,O=[N+]([O-])c1ccc2c(c1)C=Nc1ccccc1O2,inactive: -17.5%
14,CC(C)(C)c1ccc(OP(C)(=O)Nc2ccc(SC(F)(F)F)cc2)cc1 (stereo unspecified),inactive: -4.2%
15,Cc1cccc(C)c1OP(C)(N)=O (stereo unspecified),inactive: 5.19%
16,CP(=S)(Nn1cnnc1)Oc1ccccc1 (stereo unspecified),inactive: 1.35%
17,CP(=O)(Nc1ccccc1Br)Oc1ccccc1 (stereo unspecified),inactive: -1.2%
18,COc1ccccc1OP(C)(=O)Nc1ccccc1 (stereo unspecified),inactive: -5.76%
19,O=[N+]([O-])c1cc([N+](=O)[O-])c(O)c([N+](=O)[O-])c1.c1ccc(Oc2ccncc2)cc1,inactive: -11.8%
